Measurements from patent US7148338B2, “Nucleic acids encoding dipeptidyl peptidases” (The University of Sydney, priority 1999, dated 2006).

Chains of the proteins cited; added tags and fusions are not shown.
UniProt P27487, whole entry: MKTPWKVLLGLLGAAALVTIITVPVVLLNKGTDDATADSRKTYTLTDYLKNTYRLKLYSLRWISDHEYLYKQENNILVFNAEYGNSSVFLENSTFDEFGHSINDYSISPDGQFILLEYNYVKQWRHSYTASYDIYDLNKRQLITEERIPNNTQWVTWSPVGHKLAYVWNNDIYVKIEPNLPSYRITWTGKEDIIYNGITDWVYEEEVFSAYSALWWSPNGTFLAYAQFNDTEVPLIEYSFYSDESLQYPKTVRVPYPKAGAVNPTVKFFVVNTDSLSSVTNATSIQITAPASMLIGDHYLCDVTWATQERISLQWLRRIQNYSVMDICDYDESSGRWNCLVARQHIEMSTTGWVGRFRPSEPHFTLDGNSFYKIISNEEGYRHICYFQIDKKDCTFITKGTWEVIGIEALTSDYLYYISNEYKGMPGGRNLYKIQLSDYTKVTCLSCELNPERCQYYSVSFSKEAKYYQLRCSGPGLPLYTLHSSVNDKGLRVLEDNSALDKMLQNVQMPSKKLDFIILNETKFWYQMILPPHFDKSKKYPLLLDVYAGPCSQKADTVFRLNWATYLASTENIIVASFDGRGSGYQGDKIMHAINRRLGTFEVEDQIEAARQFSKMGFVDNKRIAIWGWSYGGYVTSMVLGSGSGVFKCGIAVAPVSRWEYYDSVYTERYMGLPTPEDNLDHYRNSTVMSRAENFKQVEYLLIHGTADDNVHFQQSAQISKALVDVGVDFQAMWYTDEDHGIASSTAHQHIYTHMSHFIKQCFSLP

Target: DPPIV (Homo sapiens, UniProt P27487)
Assay: Inhibition of peptidase activity of purified DPPIV, substrate H-Gly-Pro-pNA
Type: biochemical
Design: His tag; made in house; host or cells: transfected COS-7 cells; solubilised with 1% Triton X-100
Conditions: inhibitor 4 mM; 1 mM H-Gly-Pro-pNA, pH 7.4
Description: Cells (1×10^7) expressing each protein were sonicated in native buffer (50 mM sodium phosphate, 300 mM NaCl), then treated with 700 U DNAse for 20 min at room temperature. DPPIV is expressed at the cell surface, so 1% Triton X-100 was used to solubilize DPPIV/V5/His. Insoluble material was removed by centrifugation. The supernatant was incubated with 1 mL Talon® Metal Affinity Resin (Clontech) following the manufacturer's instructions for a batch/gravity flow procedure. The resin was washed with 50 mM sodium phosphate, containing 300 mM NaCl and 5 mM imidazole, and proteins were eluted using the same buffer containing 150 mM imidazole. Enzyme activity was used to monitor eluted fractions.
Enzyme assays were performed as described previously. Either clarified cell extract from 1×10^4 sonicated COS-7 cells or purified protein derived from 1×10^5 cells was incubated with substrate in 70 μL phosphate buffer, pH 7.4, for 30 min at 37° C., except where otherwise indicated. The specific DPPIV substrates, Gly-Pro-toluenesulfonate, H-Gly-Pro-p-nitroanilide (NA)/HCl (Sigma, St Louis, Mo., USA) and Gly-Pro-7-amino-4-trifluromethylcoumarin (Calbiochem, San Diego, Calif., USA) were tested. […]

NCCc1ccc(S(=O)(=O)F)cc1 [AEBSF, 4-(2-aminoethyl)benzenesulfonylfluoride]
Residual activity (% of control): 52 % of control
